Patent US20240115712A1, “SEMICARBAZONE-BASED SAPONIN CONJUGATE” (priority 2021, published 2024)

How the values were obtained:
[1] = system: A431 cells; format: cell-based, human; details: for cell killing activity of conjugate alone: A431, equivalent concentrations, without CD71mab-saporin
Protocol: Cell viability was determined by an MTS-assay, performed according to the manufacturer's instruction (CellTiter 96® AQueous One Solution Cell Proliferation Assay, Promega). Briefly, the MTS solution was diluted 20× in DMEM without phenol red (PAN-Biotech GmbH) supplemented with 10% FBS (PAN-Biotech GmbH). The cells were washed once with 200 μL PBS per well, after which 100 μL diluted MTS solution was added per well. The plate was incubated for approximately 20-30 minutes at 37° C. Subsequently, the optical density at 492 nm was measured on a Thermo Scientific Multiskan FC plate reader (Thermo Scientific).

[2] = system: HSP27 mRNA expression in A431 cells; assay: HSP27 gene silencing (qPCR) in A431 cells; format: cell-based, human; details: A431 (EGFR++/HER2+/-); conjugate titrated +50 pM Trastuzumab-HSP27BNA; read-out: IC50 targeted HSP27 gene silencing
Text: RNA Isolation and Gene Expression Analysis
RNA from cells was isolated and analysed according to standard protocols (Biorad).

Substance	cell killing activity of conjugate alone [1]	IC50 ([1]; A431 (EGFR++/CD71+), conjugate titrated +10 pM CD71mab-saporin, read-out: IC50 targeted cell killing) [nM]	IC50 [2] [nM]
Cetuximab-(SC-SO1861)^4: SO1861-SC-Mal conjugated via cysteine residues to Cetuximab, DAR 4	could not induce any cell killing activity	–	–
Cetuximab-(EMCH-SO1861)^4: SO1861-EMCH conjugated to Cetuximab cysteines, hydrazone comparator	could not induce any cell killing activity	2	0.5
